Measurements reported in PubChem BioAssay AID595 (National Center for Advancing Translational Sciences (NCATS), 2007).
The list shows a part of the results, in another mix than the full data. Inconclusive results are not listed. Calls of active or inactive are those of the source. The call rests on the fitted dose curve; in most records, active means well fitted curve in either direction with a large enough effect; inconclusive means small, poorly fitted or top-dose-only effect, or another doubt; inactive means flat fitted curve, though single readings scatter.
On the % scale 0 is the no-effect control and ±100 the full control effect.

What follows are compounds tested on Hsp90 C-terminal peptide / TPR2A (Hop) interaction, human (assay: qHTS Assay for Disrupters of an Hsp90 Co-Chaperone Interaction). Details: AlphaScreen TPR2A-His6 binding biotin-Hsp90 C-terminal peptide; at 57 µM (top of the series) unless noted.
From the text: NIH Chemical Genomics Center [NCGC]
NIH Molecular Libraries Screening Centers Network [MLSCN]
Hsp90 (heat shock protein 90) is the essential molecular chaperone and it accounts for 1-2% of all cytosolic proteins and is critical for the activity of diverse cellular proteins that are involved in a variety of cellular processes, including development, cell cycle, and steroid hormone signaling. Its client proteins include signaling kinases such as IGF1R, Akt, v-Src, Raf-1; regulators of cell survival such as Bcr-Abl; and transcription factors such as mutated p53, estrogen and progesterone receptors. Hsp90 has emerged as an important target for cancer treatment due to its essential role in maintaining transformation and regulating the function of oncogenic signaling proteins.
The in vivo function of Hsp90 is regulated by the binding and hydrolysis of ATP at its N-terminal. Geldanamycin binds to ATP site and inhibit Hsp90 function. Geldanamycin and its analogues are under clinical trials in cancer patients.
This domain contains the binding site for tetratricopeptide repeat (TPR) domains on HOP (Hsp Organizing Protein). TPR is a structural motif used by a significant number of cochaperones by which the in vivo function of Hsp90 is regulated. TPR2A on HOP binds specifically to MEEVD motif of the C-terminal of Hsp90.
A homogeneous AlphaScreen is developed to assess the interaction between TPR2A and MEEVD motif of the C-terminal of Hsp90 by using the isolated TPR2A domain and a synthesized 20mer Hsp90 C terminal peptide. AlphaScreen is two bead-based proximity-dependent chemical energy transfer luminescent assay platform. TPR2A-His-6 and biotinylated Hsp90 C terminal peptide will bring streptavidin donor beads and nickel chelate acceptor beads to a proximity range (less than 200 nm), and subsequently lead a chemical luminescent reaction upon exciting donor beads with 680 nm laser. Inhibition of TPR2A and MEEVD motif interaction by small molecules could attenuate or abolish this chemical luminescent reaction.
Counter screening: Biotinylated-His-6 (PerkinElmer) can be utilized as a counter screen, as it serves as a linker to bring streptavidin beads and nickel chelate beads together. The counter screen can exclude alpha screen platform false positives due to small molecules being metal chelators, biotin analogues and imidazole analogues, or due to interfering with oxygen release from donor beads. Such an assay should be utilized to qualify any activity observed in this screen.
NCGC Assay Protocol Summary:
The assay was performed on 1536-well white plate (untreated solid bottom). Liquids were dispensed by 1536-well plate washer (Kalypsys, San Diego, CA). Plates were read on EnVision (PerkinElmer, Boston, MA).TPR2A-His6 was produced using a bacteria expression system and purified using a well developed method (Ghosh et al., 2000). Hsp90 C terminal 20-mer peptide with or without an N-terminal biotin group are synthesized using automated solid phase synthesis by the Yale Keck facility. The composition of assay buffer was (in mM) 25 HEPES, 100 KCl, 2 MgCl2 and 2 DTT; 0.1% BSA and 0.01% Tween-20. TPR2A-His6 binding to biotin-Hsp90 will bring streptavidin donor beads and nickel chelate acceptor beads (PerkinElmer) together and can be measured by Alpha reading by EnVision (PerkinElmer). Free Hsp90 blocks biotin-Hsp90 binding to TPR2 and serves as a positive control in the current asssay.
The assay was performed at room temperature. All compounds were screened as titrations from […] to 46 uM final concentration. The assay was performed in 1536-well format plates (untreated white solid bottom, Corning Inc.) as follows:
Sequence,Parameter,Value,Description
1,Reagent,3 uL TPR2A-His6,Final concentration was 5nM
2,Compound,23 nL,Final titration was from 0.7 nM to 46 uM
3,Time,15 minutes,Room temperature
4,Reagent,1 uL biotin-Hsp90,With and without free Hsp90. Final concentration was 10 nM for biotin-Hsp90 and 10uM for free Hsp90.
5,Time,1 hour,Room temperature
[…]
For `N/C(=N\O)c1c(N)no[n+]1[O-]`, the activity change, negative = inhibition was inactive: -0.814%. With `ClCCOP(OCCCl)OCCCl` the activity change, negative = inhibition was inactive: -1.21%. For `Fc1ccccc1NC1CCN(Cc2ccccc2)CC1`, the activity change, negative = inhibition was inactive: -1.23%. With `CCC(CO)(C(=O)OC1CN2CCC1CC2)c1ccccc1` (stereo not given) the activity change, negative = inhibition was inactive: -4.01%. In the case of `O=C(O)C1(Nc2ccccc2)CCN(Cc2ccccc2)CC1`, the activity change, negative = inhibition is reported as inactive: -3.98% [at 11 µM]. For `CCOc1ncccc1C(=O)NCC1(N2CCOCC2)CCCCC1`, the activity change, negative = inhibition was inactive: -0.805%. With `O=C(OC1CN2CCC1CC2)C1c2ccccc2Oc2ccccc21` (stereo not given) the activity change, negative = inhibition was inactive: 1.74%. With `N#CC1(Nc2ccccc2)CCN(CCc2ccccc2)CC1` the activity change, negative = inhibition was inactive: 2.79%. In the case of `NC1CCCCC1.NP(=O)(O)N(CCCl)CCCl`, the activity change, negative = inhibition is reported as inactive: -0.842% [at 11 µM]. For `CCOP(=O)(Cl)Cl`, the activity change, negative = inhibition was inactive: -2.59%.
